The target of series [1] is norepinephrine transporter (NET) (Rattus norvegicus, UniProt Q63380). The settings on record: rat brain membranes.
The target of series [2] is T1, serotonin transporter (SERT) (Rattus norvegicus (Rat), UniProt P31652). The settings on record: rat brain membranes.
The target in series [3] is dopamine transporter (DAT) (Rattus norvegicus (Rat), UniProt P23977). In words: Dopamine Transporter Binding Assay ([3H]WIN 35428, rat striatal membranes). The settings on record: for Ki: read-out: Ki (nM) ± S.E.M. DAT.
Series [4] deals with T1, serotonin transporter (SERT). The series is described as follows: biochemical.
Series [5] in a line: Plasma pharmacokinetics in mice, 10 mg/kg i.v. and p.o. The settings on record: male, CD1, mouse, in vivo.
Where [6] appears, read: read-out: SERT Ki ± SEM, Table 5 piperazinyl derivatives.
[7] abbreviates: ratio of Ki values, rat brain membranes.
The mark [8] stands for this setting: read-out: Ki (nM) ± S.E.M. SERT, Table 1 thioacetamides and sulfinylacetamides.

Sequences of proteins named here, by UniProt entry; tags and fusion partners are left off. Residues count along the entry.
UniProt Q63380, 1-617: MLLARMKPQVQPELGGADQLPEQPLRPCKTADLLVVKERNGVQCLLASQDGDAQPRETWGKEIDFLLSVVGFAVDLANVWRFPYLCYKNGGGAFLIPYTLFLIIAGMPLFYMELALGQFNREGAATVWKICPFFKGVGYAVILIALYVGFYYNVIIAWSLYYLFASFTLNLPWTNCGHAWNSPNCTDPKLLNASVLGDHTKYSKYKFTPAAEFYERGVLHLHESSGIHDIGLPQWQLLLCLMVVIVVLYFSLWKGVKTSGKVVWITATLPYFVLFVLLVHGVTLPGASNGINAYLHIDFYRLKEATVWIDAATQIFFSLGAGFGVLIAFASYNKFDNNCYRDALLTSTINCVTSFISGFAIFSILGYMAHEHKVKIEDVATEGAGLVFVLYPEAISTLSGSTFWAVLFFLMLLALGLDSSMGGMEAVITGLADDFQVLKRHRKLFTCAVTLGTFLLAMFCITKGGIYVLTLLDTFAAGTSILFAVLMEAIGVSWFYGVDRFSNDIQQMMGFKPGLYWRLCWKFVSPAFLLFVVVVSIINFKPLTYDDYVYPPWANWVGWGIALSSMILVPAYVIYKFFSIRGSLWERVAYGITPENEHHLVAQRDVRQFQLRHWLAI
UniProt P31652, whole entry: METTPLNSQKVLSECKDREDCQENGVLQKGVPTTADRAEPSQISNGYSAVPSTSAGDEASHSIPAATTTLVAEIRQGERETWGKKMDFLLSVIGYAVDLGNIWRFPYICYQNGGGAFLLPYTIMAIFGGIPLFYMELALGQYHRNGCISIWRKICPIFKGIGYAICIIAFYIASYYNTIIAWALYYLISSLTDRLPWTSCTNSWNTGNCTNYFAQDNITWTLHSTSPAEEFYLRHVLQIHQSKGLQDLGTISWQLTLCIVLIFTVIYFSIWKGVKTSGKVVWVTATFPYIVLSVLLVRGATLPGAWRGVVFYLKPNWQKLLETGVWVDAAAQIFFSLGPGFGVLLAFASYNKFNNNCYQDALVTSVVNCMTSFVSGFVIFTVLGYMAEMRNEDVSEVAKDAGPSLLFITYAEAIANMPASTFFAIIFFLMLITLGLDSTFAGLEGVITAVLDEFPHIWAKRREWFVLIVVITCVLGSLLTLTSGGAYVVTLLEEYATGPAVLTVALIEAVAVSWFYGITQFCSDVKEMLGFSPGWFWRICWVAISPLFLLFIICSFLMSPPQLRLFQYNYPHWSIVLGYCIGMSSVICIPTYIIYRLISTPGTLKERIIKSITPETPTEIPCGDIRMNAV
UniProt P23977, whole entry: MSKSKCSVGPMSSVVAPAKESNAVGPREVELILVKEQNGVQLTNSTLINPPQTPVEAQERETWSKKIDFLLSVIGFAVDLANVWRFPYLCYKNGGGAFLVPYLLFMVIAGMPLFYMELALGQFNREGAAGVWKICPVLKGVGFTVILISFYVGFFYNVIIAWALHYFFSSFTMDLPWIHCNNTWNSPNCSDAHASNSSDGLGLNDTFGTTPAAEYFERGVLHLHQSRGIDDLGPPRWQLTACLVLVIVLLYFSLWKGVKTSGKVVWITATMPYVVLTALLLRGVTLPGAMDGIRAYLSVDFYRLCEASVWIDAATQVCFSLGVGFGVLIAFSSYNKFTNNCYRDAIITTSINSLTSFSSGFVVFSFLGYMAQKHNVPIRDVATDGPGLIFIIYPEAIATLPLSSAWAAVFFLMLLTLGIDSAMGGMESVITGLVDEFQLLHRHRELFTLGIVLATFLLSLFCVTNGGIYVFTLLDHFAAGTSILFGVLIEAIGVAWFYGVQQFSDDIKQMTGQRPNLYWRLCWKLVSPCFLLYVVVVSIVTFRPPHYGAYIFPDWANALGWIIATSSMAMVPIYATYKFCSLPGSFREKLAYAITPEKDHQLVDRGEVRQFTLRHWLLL

Where two headings read alike, the source gives them in different places.

For orientation: Ki means the dissociation constant of the complex between target and ligand, obtained from inhibition or displacement. Take `NC(=O)C[S+]([O-])C(c1ccccc1)c1ccccc1` (racemic) [(±)-modafinil, 2-[(diphenylmethyl)sulfinyl]acetamide, reference compound]: in series [1] (read-out: Ki (nM) ± S.E.M. NET, Table 1 thioacetamides and sulfinylacetamides), the Ki is over 100000 nM. Take `OC(Cc1ccccc1)CN1CCN(CCSC(c2ccccc2)c2ccccc2)CC1` (racemic) [Compound 9g, 1-(4-(2-(Benzhydrylthio)ethyl)piperazin-1-yl)-3-phenylpropan-2-ol]: in series [2] (setting [6]), the Ki was 1630 ± 169 nM. As to `NC(=O)CSC(c1cccc(Cl)c1)c1cccc(Cl)c1` [Compound 2e, 2-((Bis(3-chlorophenyl)methyl)thio)acetamide], in series [3] (setting [7]), the NET/DAT selectivity ratio was at least 123. As for `CNC(=O)CSC(c1ccc(Cl)cc1)c1ccc(Cl)cc1` [Compound 2h, 2-((Bis(4-chlorophenyl)methyl)thio)-N-methylacetamide], the Ki in series [3] amounted to 4240 nM. On to `CCCNC(=O)CSC(c1ccc(Cl)cc1)c1ccc(Cl)cc1` [Compound 2m, 2-((Bis(4-chlorophenyl)methyl)thio)-N-propylacetamide], for which, in series [3], the Ki came out at 1250 nM.

For `CCCNC(=O)CSC(c1ccc(Br)cc1)c1ccc(Br)cc1` [Compound 2n, 2-((Bis(4-bromophenyl)methyl)thio)-N-propylacetamide], the figures for the Ki in series [2] (setting [8]) and in series [3] were 8970 nM and 592 ± 42.6 nM, respectively.

`CCCCNC(=O)CSC(c1ccc(F)cc1)c1ccc(F)cc1` [Compound 2s, 2-((Bis(4-fluorophenyl)methyl)thio)-N-butylacetamide]: the inhibitory constant (Ki) in series [2] (setting [8]) came out at 25800 nM. Compound `O=C(CSC(c1ccccc1)c1ccccc1)NCCCc1ccccc1` [Compound 2u, 2-(Benzhydrylthio)-N-(3-phenylpropyl)acetamide] displayed a Ki in series [4] of over 100000 nM. On to `O=C(CSC(c1ccc(F)cc1)c1ccc(F)cc1)NCCCc1ccccc1` [Compound 2v, 2-((Bis(4-fluorophenyl)methyl)thio)-N-(3-phenylpropyl)acetamide], for which, in series [3], the Ki stood at 452 ± 65.8 nM. `O=C(CSC(c1ccc(Cl)cc1)c1ccc(Cl)cc1)NCCCc1ccccc1` [Compound 2w, 2-((bis(4-chlorophenyl)methyl)thio)-N-(3-phenylpropyl)acetamide] returned an inhibitory constant (Ki) in series [4] of over 100000 nM.

`O=C(CSC(c1ccc(Br)cc1)c1ccc(Br)cc1)NCCCc1ccccc1` [Compound 2x, 2-((Bis(4-bromophenyl)methyl)thio)-N-(3-phenylpropyl)acetamide]: in series [3] (setting [7]), the NET/DAT selectivity ratio is given as at least 149 and the SERT/DAT selectivity ratio was at least 249. `O=C(CSC(c1ccccc1)c1ccccc1)NCCCCc1ccccc1` [Compound 2y, 2-(Benzhydrylthio)-N-(4-phenylbutyl)acetamide]: the Ki in series [2] (setting [8]) was over 100000 nM.

Take `O=C(CSC(c1ccc(Br)cc1)c1ccc(Br)cc1)NCCCCc1ccccc1` [Compound 2z, 2-((Bis(4-bromophenyl)methyl)thio)-N-(4-phenylbutyl)acetamide]: the SERT/DAT selectivity ratio in series [3] (setting [7]) is given as at least 241. For the same compound, the Ki in series [3] came out at 414 ± 59.5 nM. For the compound `O=C(C[S+]([O-])C(c1ccc(Br)cc1)c1ccc(Br)cc1)NCCCc1ccccc1` (stereo not drawn) [Compound 3g, 2-(Bis(4-bromophenyl)methylsulfinyl)-N-(3-phenylpropyl)acetamide], in series [3] (setting [7]), the “DAT:SERT ratio” value stood at 1.4. With `CCCCNCCSC(c1ccccc1)c1ccccc1` [Compound 4e, N-(2-(benzhydrylthio)ethyl)butan-1-amine], in series [3] (setting [7]), the NET/DAT selectivity ratio came out at 36 and the SERT/DAT selectivity ratio was determined as 18. As a reminder, the half-life is the time needed for the level to fall by half in the phase considered. A low value points to rapid decline. For the compound `Fc1ccc(C(SCCNCCCc2ccccc2)c2ccc(F)cc2)cc1` [Compound 4g, N-(2-((bis(4-fluorophenyl)methyl)thio)ethyl)-3-phenylpropan-1-amine], the half-life is about 60 min in series [5] and 59.8 min in series [5] (iv). Turning to `NCC[S+]([O-])C(c1ccccc1)c1ccccc1` (stereo not drawn) [Compound 5a, 2-(Benzhydrylsulfinyl)ethan-1-amine], in series [3], the Ki turned out to be 1110 nM. Consider `CCCCNCC[S+]([O-])C(c1ccccc1)c1ccccc1` (stereo not drawn) [Compound 5b, N-(2-(benzhydrylsulfinyl)ethyl)butan-1-amine], for which, in series [3] (setting [7]), the NET/DAT selectivity ratio was determined as 89 and the SERT/DAT selectivity ratio worked out at 41. For the compound `[O-][S+](CCN1CCN(CCCc2ccccc2)CC1)C(c1ccc(F)cc1)c1ccc(F)cc1` (stereo not drawn) [Compound 8b, 1-(2-((Bis(4-fluorophenyl)methyl)sulfinyl)ethyl)-4-(3-phenylpropyl)piperazine], the Ki in series [2] (setting [6]) came to 678 nM. For the compound `O=C(CSC(c1ccccc1)c1ccccc1)N1CCN(CCCc2ccccc2)CC1` [Compound 11a, 2-(Benzhydrylthio)-1-(4-(3-phenylpropyl)piperazin-1-yl)ethan-1-one], the Ki in series [2] (setting [6]) worked out at 9320 ± 932 nM; in series [1] (read-out: NET Ki ± SEM, Table 5 piperazinyl derivatives) it was 22600 ± 3010 nM.

Values taken from patent US9862679B2, “Potent and selective inhibitors of monoamine transporters; method of making; and use thereof” (priority 2013, dated 2018).
